# Permeability data for macrocyclic peptides

PAMPA measures passive passage through an artificial lipid membrane.
Caco-2 values are permeabilities across monolayers of Caco-2 human intestinal cells.
Permeability is given as log10 of P in cm/s; higher (less negative) is more permeable.
"–" marks a cell with nothing listed here.

compound,PAMPA (log10 cm/s),Caco-2 (log10 cm/s)
CCCC[C@@H]1NC(=O)[C@H](CC(C)C)N(C)C(=O)CN(CCCc2cnn(C)c2)C(=O)[C@H](C)NC(=O)CN(Cc2ccccc2Cn2cccn2)C(=O)[C@H]2CCCN2C1=O,-6.66,–
CCCCCN1CC(=O)N(C)[C@@H](CC(C)C)C(=O)N[C@@H](CCCC)C(=O)N2CCC[C@@H]2C(=O)N(CCCCc2ccccc2)CC(=O)N[C@@H](Cc2ccc3ccccc3c2)C1=O,-8.11,–
CCCC[C@@H]1NC(=O)[C@H](CC(C)C)N(C)C(=O)CN(Cc2ccccc2)C(=O)[C@H](Cc2ccc3ccccc3c2)NC(=O)CN(CCN2CCOCC2)C(=O)[C@H]2CCCN2C1=O,-5.92,–
CCCC[C@@H]1NC(=O)[C@H](CC(C)C)N(C)C(=O)CN(Cc2ccccc2)C(=O)[C@H](CC(C)C)NC(=O)CN(CCN2CCOCC2)C(=O)[C@H]2CCCN2C1=O,-5.40,–
CCCCCN1CC(=O)N(C)[C@@H](CC(C)C)C(=O)N[C@@H](CCCC)C(=O)N2CCC[C@@H]2C(=O)N(Cc2cc(CC(C)C)on2)CC(=O)N[C@@H](Cc2ccccc2)C1=O,-6.99,–
CCCCCN1CC(=O)N(C)[C@@H](CC(C)C)C(=O)N[C@@H](CCCC)C(=O)N2CCC[C@@H]2C(=O)N(CC)CC(=O)N[C@@H](Cc2ccc3ccccc3c2)C1=O,-6.49,–
CCCC[C@@H]1NC(=O)[C@H](CC(C)C)N(C)C(=O)CN(CCc2cccnc2)C(=O)[C@H](CC(C)C)NC(=O)CN(Cc2ccccc2Cn2cccn2)C(=O)[C@H]2CCCN2C1=O,-5.59,-6.02
CCCC[C@@H]1NC(=O)[C@H](CC(C)C)N(C)C(=O)CN(CCOc2ccccc2)C(=O)[C@H](Cc2ccc3ccccc3c2)NC(=O)CN(Cc2ccc(Cl)cc2)C(=O)[C@H]2CCCN2C1=O,-9.41,–
CCCC[C@@H]1NC(=O)[C@H](CC(C)C)N(C)C(=O)CN(CCCN2CCCC2=O)C(=O)[C@H](Cc2ccccc2)NC(=O)CN(CC)C(=O)[C@H]2CCCN2C1=O,-6.60,–
CCCC[C@@H]1NC(=O)[C@H](CC(C)C)N(C)C(=O)CN(Cc2ccccc2)C(=O)[C@H](Cc2ccccc2)NC(=O)CN(CCCCc2ccccc2)C(=O)[C@H]2CCCN2C1=O,-8.45,–
CCCC[C@@H]1NC(=O)[C@H](CC(C)C)N(C)C(=O)CN(CCOC)C(=O)[C@H](C)NC(=O)CN(Cc2ccccc2Cn2cccn2)C(=O)[C@H]2CCCN2C1=O,-6.51,–
CCCC[C@@H]1NC(=O)[C@H](CC(C)C)N(C)C(=O)CN(CC2CCCCC2)C(=O)[C@H](C)NC(=O)CN(CC(C)C)C(=O)[C@H]2CCCN2C1=O,-4.96,–
CCCC[C@@H]1NC(=O)[C@H](CC(C)C)N(C)C(=O)CN(CCOc2ccccc2)C(=O)[C@H](Cc2ccc3ccccc3c2)NC(=O)CN(CC)C(=O)[C@H]2CCCN2C1=O,-6.32,–
CCCC[C@@H]1NC(=O)[C@H](CC(C)C)N(C)C(=O)CN(CCCc2ccccc2)C(=O)[C@H](CC(C)C)NC(=O)CN(CCC)C(=O)[C@H]2CCCN2C1=O,-5.57,–
CCCC[C@@H]1NC(=O)[C@H](CC(C)C)N(C)C(=O)CN(CCc2cccnc2)C(=O)[C@H](Cc2ccccc2)NC(=O)CN(Cc2ccc3c(c2)OCO3)C(=O)[C@H]2CCCN2C1=O,-5.80,–

Excerpt, the final 2 entries:

compound	PAMPA (log10 cm/s)	Caco-2 (log10 cm/s)
CCCC[C@@H]1NC(=O)[C@H](CC(C)C)N(C)C(=O)CN(CCCc2ccccc2)C(=O)[C@H](CC(C)C)NC(=O)CN(CCC)C(=O)[C@H]2CCCN2C1=O	-5.57	–
CCCC[C@@H]1NC(=O)[C@H](CC(C)C)N(C)C(=O)CN(CCc2cccnc2)C(=O)[C@H](Cc2ccccc2)NC(=O)CN(Cc2ccc3c(c2)OCO3)C(=O)[C@H]2CCCN2C1=O	-5.80	–

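Lipid, pH, incubation time, direction and concentration are not recorded in the data file. Other peptides of the study may be missing here. Peptides that the database sets to -10, its floor, are left out.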

Values of Furukawa et al. 2016, doi:10.1021/acs.jmedchem.6b01246, as listed in CycPeptMPDB.